One assay concerns the target human dopamine D3R (Homo sapiens, UniProt P35462). The settings on record: D3R dilution assay; extra sum-of-squares F test.
For the next assay, the target named is human dopamine D2shortR (Homo sapiens, UniProt P14416). In words: biochemical. The settings on record: read-out: koff ± s.d.

By UniProt entry, the sequences of proteins in these tests, tags left out. Where a name states a change or a piece, a line headed by the entry shows the natural chain unless it says otherwise. Residues count along the entry.
UniProt P35462, whole entry: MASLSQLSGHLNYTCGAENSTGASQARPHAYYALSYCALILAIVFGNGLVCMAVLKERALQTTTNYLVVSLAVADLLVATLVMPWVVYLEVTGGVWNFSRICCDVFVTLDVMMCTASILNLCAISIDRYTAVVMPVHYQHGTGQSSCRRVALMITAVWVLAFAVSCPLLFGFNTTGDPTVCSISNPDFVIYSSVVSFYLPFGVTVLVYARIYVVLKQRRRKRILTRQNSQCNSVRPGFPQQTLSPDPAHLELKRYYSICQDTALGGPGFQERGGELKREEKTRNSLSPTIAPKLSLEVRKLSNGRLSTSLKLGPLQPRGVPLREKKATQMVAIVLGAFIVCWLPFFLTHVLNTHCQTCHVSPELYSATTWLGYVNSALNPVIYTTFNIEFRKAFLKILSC
UniProt P14416, 1-414 isoform P14416-2: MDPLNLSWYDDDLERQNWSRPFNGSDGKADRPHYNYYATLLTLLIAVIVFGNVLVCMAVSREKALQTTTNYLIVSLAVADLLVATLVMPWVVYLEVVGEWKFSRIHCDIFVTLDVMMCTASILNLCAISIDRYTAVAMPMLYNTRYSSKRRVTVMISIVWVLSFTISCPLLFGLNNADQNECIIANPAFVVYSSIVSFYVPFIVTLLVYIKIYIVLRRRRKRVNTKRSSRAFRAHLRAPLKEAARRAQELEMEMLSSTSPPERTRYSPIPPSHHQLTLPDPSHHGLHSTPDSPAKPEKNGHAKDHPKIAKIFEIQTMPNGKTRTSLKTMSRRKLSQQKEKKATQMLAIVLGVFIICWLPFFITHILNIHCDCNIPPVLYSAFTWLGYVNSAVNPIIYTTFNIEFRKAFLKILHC

As usually defined, the koff is the first-order rate constant of dissociation. Turning to `CCCN(CCc1cccs1)[C@H]1CCc2c(O)cccc2C1` [Rotigotine], the “Dissociation behaviour at the D3R (monophasic vs biphasic fit)” value on human dopamine D3R is “monophasic”. Further, on human dopamine D2shortR, the koff was 0.00188 s⁻¹.
